From patent US9060994B2, “Combination therapy with interferon and andrographolides for Multiple Sclerosis” (Inno Biosciences, S.p.A., priority 2011, dated 2015) come the findings set out here.

The subject of data set [1] is MOG-immunized C57BL/6J mice. Briefly: MOG-induced EAE mice, clinical score. Conditions: chronic EAE mice immunized with MOG, administered during active phase (day 16-31), compared with saline injected controls. In kind it is in vivo. How it is done: EAE was induced by immunization with myelin oligodendrocyte glycoprotein (MOG)35-55 peptide ([…]) or proteolipid protein (PLP)139-151 ([…]; CPC Scientific, Sunnyvale, Calif., USA) emulsified at 1.5 mg/ml in PBS with an equal amount of incomplete Freund's adjuvant (IFA; DIFCO, MI, USA) supplemented with 2.5 mg/ml Mycobacterium tuberculosis, strain H37Ra (Difco, Detroit, Mich.). Mice were immunized subcutaneously with 200 ml emulsion. Pertussis toxin (LIST […], CA, USA), 200 ng in 200 μl PBS, was injected intraperitoneally at day 0 and 2 after initial immunization.
Animals were scored for clinical symptoms as follows: 0=no signs of disease; 1=lost of tail tone; 2=flaccid tail; 3=partial hind limb paralysis; 4=complete hind limb paralysis; 5=moribund required to sacrifice the animal; 6=death.
For IFN-β assays, C57BL/6, were administered intraperitoneally with 1 μg of IFN-β (IFN-β Rebif 88 μ/ml MERCK SORONO) in 200 μL PBS. Control mice were injected with 200 μL PBS.
IFN-β was administrated from day 15 to 30 post-immunization, daily.
For combined therapy (CT) assays, C57BL/6, were administered intraperitoneally with 4 mg/kg of andrographolide and IFN-β 1 ug in 200 μL PBS. Control mice were injected with 200 μL PBS.
Combined therapy (CT) was administrated from day 15 to 30 post-immunization, either daily or every second day. At day 36 all animals were sacrificed. […]

The mark [2] stands for this setting: interferon beta monotherapy, 12 months.

For “IFN-β: Interferon beta; Rebif in mice; Avonex, Rebif or Betaferon/Betaseron in patients”, the “total number and size of demyelinating lesions in the brain” value in the data set on MS patients (MRI) is listed as “No change”. In addition, the “inflammatory activity of demyelinating lesions” value with MS patients (MRI Gadolinium contrast medium uptake, versus time 0) is “Some degree of reduction of inflammatory activity”. In the data set with MS patients (human, in vivo), the “appearance of flu-like symptoms (aches and pains, fever, chills, sweating or headache)” value is given as 6 of 8; the depression entry is “Two patients reported mild depression”. Also, in the data set with MS patients (setting [2]), the antigravity displacement entry is reported as “No effect”; the “clinical signs of subjective wellness” value is on record as “No patients showed clinical signs of subjective wellness”; the “speech impairment, vision, deglutition and fine motricity” value is reported as “No improvement”; the “symptomatic control of fatigue and improvement of mood” value is “no degree of symptomatic control”. Besides, the mean clinical scores entry in data set [1] is given as “mild decrease in mean clinical scores”.
